Values quoted from earlier work as cited in publication PMC4316792, “The dehydrogenase region of the NADPH oxidase component Nox2 acts as a protein disulfide isomerase (PDI) resembling PDIA3 with a role in the binding of the activator protein p67^phox” (Frontiers in Chemistry, 2015).

System: NADPH oxidase
Design: method as in 8 sources, one per row (each row's own in cited_ref): ref Shpungin et al., [1989] ||| ref Bellavite et al., [1983]; Gabig and Lefker, [1984] ||| ref Pick et al., [1987] ||| ref Le Cabec and Maridonneau-Parini, [1995] ||| ref Nishida et al., [2005] ||| ...
Conditions: cited from earlier work

## O=C(O)c1cc[c]([Hg][OH])cc1 [HMBA, 4-(hydroxymercuri)benzoic acid]
  activity of treated macrophage membrane liposomes in a cell-free oxidase activation system: inactive
